# Measured values taken from ChEMBL document CHEMBL4602604, “A Selective and Brain Penetrant p38αMAPK Inhibitor Candidate for Neurologic and Neuropsychiatric Disorders That Attenuates Neuroinflammation and Cognitive Dysfunction” (J Med Chem, 2019).
# Legend:
# in vivo = details: APP/PS1 knock-in, mouse, po
Structure (SMILES),pKa (physchem),NOAEL (in vivo)
c1ccc(-c2nnc(N3CCN(c4ncccn4)CC3)cc2-c2ccncc2)cc1,4.18 to 4.6,–
Clc1cc(-c2ccncc2)c(-c2ccccc2)nn1,3.83,–
CN1CCN(c2cc(-c3ccncc3)c(-c3ccc4ccccc4c3)nn2)CC1 [MW-150],–,≥ 250 mg/kg
